Test results published in article PMC4819712 (Drug Development Research, 2016).

The chains behind the UniProt entries cited, without tags or fusion partners. Residues count along the entry.
UniProt P23219, 24-599: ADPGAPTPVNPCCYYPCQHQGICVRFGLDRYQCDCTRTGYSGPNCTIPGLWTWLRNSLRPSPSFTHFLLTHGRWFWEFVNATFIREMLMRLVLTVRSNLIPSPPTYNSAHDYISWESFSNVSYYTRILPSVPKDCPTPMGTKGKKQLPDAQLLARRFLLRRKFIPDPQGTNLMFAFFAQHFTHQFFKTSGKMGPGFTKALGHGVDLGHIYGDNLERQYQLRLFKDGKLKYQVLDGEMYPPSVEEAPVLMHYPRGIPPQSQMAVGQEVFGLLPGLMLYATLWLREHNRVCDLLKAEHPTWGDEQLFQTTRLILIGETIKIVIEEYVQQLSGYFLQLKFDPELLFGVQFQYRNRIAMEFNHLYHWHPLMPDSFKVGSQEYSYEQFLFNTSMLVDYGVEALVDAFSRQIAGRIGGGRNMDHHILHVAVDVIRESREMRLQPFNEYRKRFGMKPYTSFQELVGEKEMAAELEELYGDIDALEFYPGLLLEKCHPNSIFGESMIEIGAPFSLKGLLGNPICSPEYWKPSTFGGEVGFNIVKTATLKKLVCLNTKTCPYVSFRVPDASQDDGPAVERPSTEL

Target: Human recombinant COX‐1 (Homo sapiens, UniProt P23219)
Type: biochemical

C[C@H](C(=O)O)c1ccc(-c2ccccc2)c(F)c1 [S(+)‐flurbiprofen, (2S)‐2‐(2Fluorobiphenyl‐4‐yl) propionic acid]
IC50: 8.97 nM
